# Only a part is listed here, and it is no random draw. Active and inactive are the calls of the source.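 Rule for the calls: active = inhibition above the mean inhibition across all screened compounds plus 3 SD (cut at about 44% in these data); inactive = the rest.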
# Test: blockers of STAT3 transcriptional signaling – U3A cells, luciferase, luminescence, MLSCN library, primary screen (AID 862);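 note: 0% = DMSO only wells and 100% = 100 µM nifuroxazide control wells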
# Conditions: IL-6 STAT3-luciferase reporter, at 5.5 µM, active compounds read high, host cell line lacks STAT1
row,SMILES,inhibition
1,CC(C)(C)OC(=O)N1CCC(Nc2ccccc2)CC1,inactive: -1.5%
2,CCOc1ncccc1C(=O)NCC1(N2CCOCC2)CCCCC1,inactive: -4.9%
3,COc1cc(OC)cc(C(=O)NCC2(N3CCOCC3)CCCCC2)c1,inactive: 3.3%
4,CCC(CO)(C(=O)OC1CN2CCC1CC2)c1ccccc1 (stereo not given),inactive: 0.7%
5,CN(C)c1ccc(C(=O)NCC2(N3CCCCC3)CCCCC2)cc1,inactive: -0.8%
6,CCN1CCC(Nc2cccc(F)c2)CC1,inactive: 7.9%
7,N#Cc1ccc(C(=O)NCC2(N3CCCCC3)CCCCC2)cc1,inactive: 13.5%
8,c1ccc(CN2CCC(Nc3ccccc3)CC2)cc1,inactive: -0.1%
9,COc1ccc(C(=O)NCC2(N3CCOCC3)CCCCC2)cc1OC,inactive: -1.5%
10,O=C(OC1CN2CCC1CC2)C1c2ccccc2C=Cc2ccccc21 (stereo not given),inactive: -2%
11,N/C(=N\O)c1c(N)no[n+]1[O-],inactive: 12.3%
12,CC(C)c1ccc(NC2CCN(C(=O)OC(C)(C)C)CC2)cc1,inactive: -17.3%
13,CN(C)c1cccc(C(=O)NCC2(N3CCCCC3)CCCCC2)c1,inactive: -4.5%
14,COc1ccc(CN(CCCl)CCCl)cc1Cl,inactive: 1.6%
15,CN1CCC(Nc2cccc(F)c2)CC1,inactive: -0.3%
16,N#CC1(Nc2ccccc2)CCN(CCc2ccccc2)CC1,inactive: 2.1%
17,O=C(NCC1(N2CCCCC2)CCCCC1)c1cccc([N+](=O)[O-])c1,inactive: 4.6%
18,O=C(NCC1(N2CCOCC2)CCCCC1)c1cc(=O)[nH]c2ccccc12,inactive: -3.1%
19,COc1ccc(NC2CCN(C(=O)OC(C)(C)C)CC2)cc1,inactive: -3%
20,CN1CCN(CCOC(=O)C(O)(c2ccccc2)c2ccccc2)CC1,inactive: -5.3%
21,COc1ccc(NC2CCN(CCc3ccccc3)CC2)c(OC)c1,inactive: 1.3%
22,COc1ccc(C(=O)NCC2(N3CCCCC3)CCCCC2)c(OC)c1OC,inactive: 2.9%
23,O=C(OC1CN2CCC1CC2)C1c2ccccc2Oc2ccccc21 (stereo not given),inactive: 5.1%
24,CCOC(=O)N1CCC(Nc2ccc(OC)cc2)CC1,inactive: 9.3%
25,O=C(NCC1(N2CCOCC2)CCCCC1)c1cc2ccccc2o1,inactive: -6.2%

# Source: PubChem BioAssay AID862 (The Scripps Research Institute Molecular Screening Center, 2007)
